Read-outs that look alike come from different tables or passages of the source.
Experiments:
K. pneumoniae NCTC 13368 = format: cell-based, Klebsiella pneumoniae; conditions: K. pneumoniae NCTC 13368 (R); shown in µM
Experimental: (§1) Antimicrobial activity was evaluated against a panel of 18 pathogens consisting of eight Gram-negative strains (E. coli NCTC 12923, E. coli LEC001, Pseudomonas aeruginosa PAO1, P. aeruginosa NCTC 13437, Acinetobacter baumannii ATCC 17978, A. baumannii AYE, Klebsiella pneumoniae M6, K. pneumoniae NCTC 13368), four Gram-positive strains (Staphylococcus aureus ATCC 9144, S. aureus NCTC 13616, S. aureus USA300, S. aureus 1199B) and six fungi (Candida auris TDG 1912, C. albicans NCPF 8018, C. krusei NCPF 3876, C. tropicalis NCPF 8760, and C. parapsilosis NCPF 3209). Pathogens were grown in noncation adjusted Mueller Hinton broth (MHB, for bacteria) or Roswell Park Memorial Institute (RPMI 1640) + 2% glucose (for fungi) at 37 °C with 180 rpm shaking and maintained on solid media (tryptic soy agar for bacteria and Sabouraud dextrose agar for fungi). For an antibiogram, see Suppl.
(§2) The 46 peptides were serially diluted (128 to 2 μg/mL) in media down polypropylene 96-well plates. […] Plates were incubated at 37 °C for 20 h, and the optical density was determined spectrophotometrically at 600 nm. Minimum inhibition concentrations (MICs) were determined from a minimum of three biological repeats and are reported in μg/mL as well as μM. […]

K. pneumoniae M6 = format: cell-based, Klebsiella pneumoniae; conditions: K. pneumoniae M6 (S); shown in µM
Experimental: as §1, §2

[1] = system: C. parapsilosis NCPF 3209; format: cell-based
Experimental: as §1
(§3) The 46 peptides were serially diluted (128 to 2 μg/mL) in media down polypropylene 96-well plates. Bacteria or fungi, diluted from an overnight culture to an OD600 of 0.01, were added to the serially diluted peptides at a 1:1 ratio resulting in a starting cell density of ∼5 × 10^5 CFU/mL. Plates were incubated at 37 °C for 20 h, and the optical density was determined spectrophotometrically at 600 nm. Minimum inhibition concentrations (MICs) were determined from a minimum of three biological repeats and are reported in μg/mL as well as μM. […] The MIC50 or MIC90 is defined as the lowest peptide concentration that results in 50% or 90% growth inhibition over a 20 h treatment period, respectively.

C. krusei NCPF 3876 = format: cell-based; conditions: shown in µM
Experimental: as §1, §3

C. tropicalis NCPF 8760 = format: cell-based; conditions: shown in µM
Experimental: as §1, §3

C. albicans NCPF 3281 = format: cell-based
Experimental: as §1, §3

C. glabrata NCPF 8018 = format: cell-based; conditions: shown in µM
Experimental: as §1, §3

[2] = system: S. aureus (MRSA) NCTC 13616; format: cell-based, Staphylococcus aureus; conditions: S. aureus (MRSA) NCTC 13616 (R); shown in µM
Experimental: as §1, §3

S. aureus (MRSA) 1199B = format: cell-based, Staphylococcus aureus; conditions: S. aureus (MRSA) 1199B (R); shown in µM
Experimental: as §1, §3

[3] = system: S. aureus (MSSA) ATCC 9144; format: cell-based, Staphylococcus aureus; conditions: S. aureus (MSSA) ATCC 9144 (S); shown in µM
Experimental: as §1, §3

S. aureus (MRSA) USA300 = format: cell-based, Staphylococcus aureus; conditions: S. aureus (MRSA) USA300 (R); shown in µM
Experimental: as §1, §3

human erythrocytes = assay: In vitro hemolytic activity; format: cell-based; conditions: human erythrocytes in PBS, 1 h, 37 °C, OD550; from dose response curves
Experimental: Potential erythrocyte hemolysis was tested by incubating serial dilutions of the AMPs in PBS with freshly collected erythrocytes at a ratio of 1:1 in 96-well polypropylene V-shape plates for 1 h at 37 °C. Control wells were treated with 0.1% Triton-X-100 to ensure complete lysis or PBS-only to represent no lysis. The erythrocytes were collected by centrifugation and the OD550 of the supernatant was measured using a plate reader. The percentage hemolysis was calculated as [drawing 1] 1 where Apeptide is the absorbance value of erythrocytes exposed to a known peptide concentration, Agrowth control is the absorbance of erythrocytes exposed to 0.1% Triton-X-100 and Ablank is the absorbance of erythrocytes exposed to the PBS. The concentrations at which a peptide caused 10% (HC10) and 50% (HC50) hemolysis was determined from the dose response curves.

HaCat cell line = assay: In vitro HaCat cytotoxicity (MTT); format: cell-based, human; conditions: 21 h exposure, OD570, relative to untreated control
Experimental: The HaCat cell line (Cellonex, South Africa) was cultured in Dulbecco’s Modified Eagle Medium (DMEM) supplemented with 10% heat-inactivated fetal calf serum (FCS) and 1% antibiotic-antimycotic (Abs) and maintained at 5–10% CO2, 37 °C, 95% humidity. For cytotoxicity screening, 5.56 × 10^4 cells/mL were plated in a 96-well plate. After 24 h incubation, the cells are initially exposed to each peptide at a concentration of 256 μg/mL or 0.1% Triton-X-100 as the control for 21 h. If cytotoxicity was observed, at a level of significance of p < 0.0001 compared with the untreated control after 21 h, a dose-response assay was undertaken. Cell viability was determined by adding 10% 3-(4,5-dimethyl-2-thiazolyl)-2,5-diphenyl-2H-tetrazolium bromide (MTT) (1 mg/mL), to each well and after a further 3 h incubation the media was discarded, and the formazan crystals dissolved by adding 25% DMSO in ethanol. The absorbance was measured at OD570 by using the FLUOstar Omega multidetection microplate reader (BMG Labtech). Percentage cell viability was calculated relative to the untreated control. The LC50 was defined as the concentration of AMP treatment that results in 50% lethality of HaCat cells and was determined from the dose-response curves.

E. coli NCTC 12923 = format: cell-based, Escherichia coli; conditions: E. coli NCTC 12923 (S); shown in µM
Experimental: as §1, §2

E. coli LEC001 = format: cell-based, Escherichia coli; conditions: E. coli LEC001 (R); shown in µM
Experimental: as §1, §2

P. aeruginosa PAO1 = format: cell-based, Pseudomonas aeruginosa; conditions: P. aeruginosa PAO1 (S); shown in µM
Experimental: as §1, §2

P. aeruginosa NCTC 13437 = format: cell-based, Pseudomonas aeruginosa; conditions: P. aeruginosa NCTC 13437 (R); shown in µM
Experimental: as §1, §2

A. baumannii AYE = format: cell-based, Acinetobacter baumannii; conditions: A. baumannii AYE (R); shown in µM
Experimental: as §1, §2

A. baumannii ATCC 17978 = format: cell-based, Acinetobacter baumannii; conditions: A. baumannii ATCC 17978 (S); shown in µM
Experimental: as §1, §2

C. auris TDG 1912 = format: cell-based, Candida auris
Experimental: as §1, §3

[4] = 50% growth inhibition, RPMI 1640 + 2% glucose, 37 °C, 20 h
[5] = 90% growth inhibition, RPMI 1640 + 2% glucose, 37 °C, 20 h

Question: With CC[C@H](C)[C@H](NC(=O)[C@H](C)NC(=O)[C@H](CCCCN)NC(=O)[C@H](CCCNC(=N)N)NC(=O)[C@@H](NC(=O)[C@H](CC(C)C)NC(=O)[C@H](CO)NC(=O)[C@H](Cc1ccccc1)NC(=O)[C@H](CC(C)C)NC(=O)[C@@H](N)Cc1ccccc1)[C@@H](C)CC)C(=O)NCC(=O)NCC(=O)N[C@@H](CC(C)C)C(=O)N[C@H](C(=O)N[C@@H](CO)C(=O)N[C@@H](C)C(=O)N[C@@H](Cc1ccccc1)C(=O)N[C@@H](CCCCN)C(N)=O)[C@@H](C)CC [A3a] as the compound, how does the “Modal MIC” value (K. pneumoniae NCTC 13368) read?
Answer: The value was 15.7 µM.

Question: What about the “Modal MIC” value (K. pneumoniae M6) of the same compound?
Answer: Its value is 15.7 µM.

Question: What about the “Modal MIC50” value [1, 4] of the same compound?
Answer: The value was greater than 128 µg/mL.

Question: What about the “Modal MIC90” value [1, 5] of the same compound?
Answer: Its value is greater than 128 µg/mL.

Question: What about the “Modal MIC50” value ([1]; shown in µM) of the same compound?
Answer: The value was greater than 62.9 µM.

Question: And the “Modal MIC90” value ([1]; shown in µM)?
Answer: The value was greater than 62.9 µM.

Question: And the “Modal MIC50” value (C. krusei NCPF 3876)?
Answer: The value was 15.7 µM.

Question: What about the “Modal MIC90” value (C. krusei NCPF 3876) of the same compound?
Answer: Its value is 15.7 µM.

Question: What about the “Modal MIC50” value (C. tropicalis NCPF 8760) of the same compound?
Answer: The value was 31.4 µM.

Question: What about the “Modal MIC90” value (C. tropicalis NCPF 8760) of the same compound?
Answer: The value was 31.4 µM.

Question: And the “Modal MIC50” value (C. albicans NCPF 3281; [4])?
Answer: Its value is greater than 128 µg/mL.

Question: What about the “Modal MIC90” value (C. albicans NCPF 3281; [5]) of the same compound?
Answer: Its value is greater than 128 µg/mL.

Question: What about the “Modal MIC50” value (C. albicans NCPF 3281; shown in µM) of the same compound?
Answer: Its value is greater than 62.9 µM.

Question: And the “Modal MIC90” value (C. albicans NCPF 3281; shown in µM)?
Answer: Its value is greater than 62.9 µM.

Question: And the “Modal MIC50” value (C. glabrata NCPF 8018)?
Answer: Its value is 62.9 µM.

Question: What about the “Modal MIC90” value (C. glabrata NCPF 8018) of the same compound?
Answer: Its value is 62.9 µM.

Question: What about the “Modal MIC” value [2] of the same compound?
Answer: Its value is 7.9 µM.

Question: And the “Modal MIC” value (S. aureus (MRSA) 1199B)?
Answer: The value was 3.9 µM.

Question: And the “Modal MIC” value [3]?
Answer: The value was 7.9 µM.

Question: What about the “Modal MIC” value (S. aureus (MRSA) USA300) of the same compound?
Answer: Its value is 7.9 µM.

Question: What about the “HC10 (concentration causing 10% hemolysis)” value (human erythrocytes) of the same compound?
Answer: The value was 24 µg/mL.

Question: What about the “% HaCat cell death at initial screening (256μg/mL) ± SD” value (HaCat cell line) of the same compound?
Answer: Its value is 100 ± 10.5%.

Question: And the “Modal MIC” value (E. coli NCTC 12923)?
Answer: Its value is 7.9 µM.

Question: And the “Modal MIC” value (E. coli LEC001)?
Answer: The value was 15.7 µM.

Question: What about the “Modal MIC” value (P. aeruginosa PAO1) of the same compound?
Answer: The value was 15.7 µM.

Question: And the “Modal MIC” value (P. aeruginosa NCTC 13437)?
Answer: The value was 7.9 µM.

Question: What about the “Modal MIC” value (A. baumannii AYE) of the same compound?
Answer: Its value is 7.9 µM.

Question: What about the “Modal MIC” value (A. baumannii ATCC 17978) of the same compound?
Answer: Its value is 3.9 µM.

Question: And the “Modal MIC50” value (C. auris TDG 1912; 50% growth inhibition, RPMI 1640 + 2% glucose, 37 °C, 20 h, OD600)?
Answer: The value was greater than 128 µg/mL.

Question: And the “Modal MIC90” value (C. auris TDG 1912; 90% growth inhibition, RPMI 1640 + 2% glucose, 37 °C, 20 h, OD600)?
Answer: The value was greater than 128 µg/mL.

Question: What about the “Modal MIC50” value (C. auris TDG 1912; shown in µM) of the same compound?
Answer: Its value is greater than 62.9 µM.

Question: And the “Modal MIC90” value (C. auris TDG 1912; shown in µM)?
Answer: Its value is greater than 62.9 µM.

Source: PMC11191095, “QSAR Reveals Decreased Lipophilicity of Polar Residues Determines the Selectivity of Antimicrobial Peptide Activity” (ACS Omega, 2024)
